Measurements reported in PMC6815956, “Bioinspired Self-assembling Peptide Hydrogel with Proteoglycan-assisted Growth Factor Delivery for Therapeutic Angiogenesis” (Theranostics, 2019).

Legend:
[1] = GF release profile (ELISA); format: physicochemical; settings: from GAG-assisted QLK/LRK hydrogel, PBS w/ 0.05 % Tween 20, 1 % BSA, 37 °C, n = 6
Procedure: (§1) At specific time intervals, the supernatants were collected, stored at -80 °C, and fresh release buffer was compensated. […] After adding the stop solution, the absorbance of the hydrogel at 450/540 nm was recorded by SpectraMax Plus 384 Microplate Reader.
(§2) It was the major challenge for scaffold-based GF delivery that how to maintain the release rate of incorporated GFs.

[2] = GF loading efficiency (ELISA); format: physicochemical; settings: GF/HS complex in QLK/LRK peptide hydrogel, n = 6
Procedure: as §1, §2

VEGF
cumulative release, total ([1]; 28 days, ELISA): approximately 68% | cumulative release, initial ([1]; day 3, ELISA): 32% | loading efficiency [2]: approximately 75.9 ± 1.1%
